## Apparent affinities of Ab-14 variants for a coronavirus HR2 peptide

From the AlphaSeq antibody data of Li et al. 2023 (doi:10.1038/s41467-023-39022-2), copy in the FLAb collection.

Target: peptide PDVDLGDISGINAS, taken from heptad repeat 2 (HR2) of SARS-CoV-2 spike.

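The parent was found by panning a naive human phage display library on the peptide. Designed CDR sequences, proposed from the first random library and measured here. Group labels follow the data file (Ctrl: baseline library sampled from a position-specific scoring matrix, with some repeated check sequences; Rand: our label for a block that the file lists under HC and that is probably the random mutants of the ten best first-round binders; En: ensemble of fine-tuned language models; GP: Gaussian process model; GPLM: also part of the Gaussian process libraries; HC: hill climbing; Gen: genetic algorithm; Gibbs: Gibbs sampling; a sequence that several methods proposed may carry one label only). In AlphaSeq, yeast of one mating type display the scFv and yeast of the other type display the target. After mating in shaken culture at 30 °C for 16 h, diploids were selected and their barcode pairs sequenced. Scores were corrected for input abundance and mapped to Kd with protein pairs of known affinity run in the same pool. Each pool was mated in six replicate cultures.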

The variants keep the light chain, the linker and the frameworks of Ab-14 (scFv order VH, the linker GGGGSGGGGSGGGGS, VL).
VH: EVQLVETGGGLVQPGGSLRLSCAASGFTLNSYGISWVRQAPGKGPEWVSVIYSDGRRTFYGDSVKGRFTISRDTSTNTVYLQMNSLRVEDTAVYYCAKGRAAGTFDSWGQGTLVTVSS
VL: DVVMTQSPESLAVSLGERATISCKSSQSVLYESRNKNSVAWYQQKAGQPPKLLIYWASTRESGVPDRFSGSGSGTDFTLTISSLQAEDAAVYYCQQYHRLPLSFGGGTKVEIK

Each variant is given by its three heavy chain CDRs, as the data file delimits them; those of the parent are GFTLNSYGIS, VIYSDGRRTFYGDSVK, GRAAGTFDS. Affinities are written as log10 Kd with Kd in nM; a lower number is a better binder. The mean shown is taken over the replicates in which the pair was detected. An entry "no signal" has no value in the source: the pair was not observed among the diploids in any replicate. This suggests poor binding but is not conclusive. Entries are sorted by rising average, undetected variants last. The authors' rule: three or more of the six replicates give a measured affinity, fewer mean a poor binder. As a blank, each scFv also met three strains without target: over all heavy chain designs, 1% of these pairings were detected, typically at 2.08 and seldom below 0.84. Values of this round are not directly comparable with the first-round values of the same sequences.

mean log10 Kd (nM),replicates with signal,CDR-H1,CDR-H2,CDR-H3,group
-1.29,6 of 6,GFDLNEYGIS,VIYADGVRTFYSDSVK,GTNAGTFDM,En_HC
-0.82,6 of 6,GFDLNEYGIS,VIYADGRRTAYADSVK,GHVAGTFDV,En_Gen
-0.76,6 of 6,GFDLNEYGIS,VIYADGMRTAYTDSVK,GNNAGTFDS,En_HC
-0.71,6 of 6,GFSLDEYGIS,VIYADGRRTFYTDDVK,GNVAGTFDS,En_HC
-0.69,6 of 6,GFDLNEYGIS,VIYADGRRTFYTDSVK,GSNAGTFDS,En_HC
-0.63,6 of 6,GFDLNEYGIS,VIYADGRRTAYTDSVK,GHAAGTFDL,En_HC
-0.62,6 of 6,GFSLNQYGIS,VIYSDGRRTAYQDSVK,GRAAGTFDS,GP_HC
-0.41,6 of 6,GFDLNEYGIS,VIYADGMRTFYTDSVK,GEVAGTFDS,En_HC
-0.40,6 of 6,GFDLNEYGIS,VIYADGRRTAYLDSVK,GQLAGTFDT,En_HC
-0.39,6 of 6,GFNLDEYGIS,VIYADGRRTFYADSVK,GNVAGTFVQ,En_HC
-0.35,6 of 6,GFSLNSYGIS,VIYSDGRRTFYSDDVK,GQTAGTFDS,GP_Gibbs
-0.34,6 of 6,GFELNSYGIS,VIYADGRRTFYGDQVK,GRTAGTFDS,GP_Gen
-0.33,6 of 6,GFDLNEYGIS,VIYADGRRTFYTDSVK,GNTAGTFLV,En_HC
-0.30,6 of 6,GFNLNEYGIS,VIYADGRRTFYADSVK,GQHAGTFDM,En_HC
-0.30,6 of 6,GFDLDEYGIS,VIYADGRRTAYIDSVK,GEVAGTFDV,En_Gen
-0.28,6 of 6,GFDLDEYGIS,VIYADGMRTAYSDSVK,GEVAGTFDL,En_Gen
-0.27,6 of 6,GFDLNEYGIS,VIYADGMRTAYADSVK,GEQAGTFDV,En_Gen
-0.20,6 of 6,GFDLEEYGIS,VIYADGKRTAYSDSVK,GNVAGTFDL,En_Gen
-0.16,6 of 6,GFTLNQYGIS,VIYSDGRRTFYSDSVK,GQVAGTFDS,GP_HC
-0.15,6 of 6,GFSLNQYGIS,VIYSDGRRTFYSDSVK,GSAAGTFDS,GPLM_HC
-0.08,6 of 6,GFDLDEYGIS,VIYADGVRTAYTDSVK,GNTAGTFDV,En_Gen
0.01,6 of 6,GFDLDEYGIS,VIYADGSRTAYSDSVK,GEVAGTFDL,En_Gen
0.11,6 of 6,GFDLNEYGIS,VIYADGRRTAYADSVK,GNVAGTFDA,En_Gen
0.14,6 of 6,GFSLNSYGIS,VIYSDGRRTFYKDSVK,GQTAGTFDA,GP_Gen
0.48,6 of 6,GFDLNSYGIS,VIYSDGRRTFYGDDVK,GRIAGTFDS,GP_Gen
0.61,6 of 6,GFALNSYGIS,VIYSDGRRTAYADSVK,GRAAGTFDS,Ctrl
0.81,1 of 6,GFNLNSYGIS,VIYSDGRRTFYGDRVK,GRIAGTFDS,GP_Gen
0.93,3 of 6,GFTLNSYGIS,VIYADGRRTFYKDSVK,GKAAGVFDS,Ctrl
1.04,1 of 6,KFDLNEYGIS,VIYSDGRRTFYVDSVK,GRCAGTFDS,GP_HC
1.22,4 of 6,GFALNEYGIS,VIYSDGRRTFYTDSVK,GEQAGTFDS,GP_HC
1.40,3 of 6,GFTLNDYGIR,VIYSDGRRTQYIDSVK,GRAAGTFDS,Rand
1.46,2 of 6,GFDLNSYGIS,VIYSDGRRTFYGDSVK,GRTAGMFDS,GPLM_HC
1.52,6 of 6,YFSLNEYGIS,VIYSDGRRTFYGDSVK,GRNAGTFDS,GP_Gen
1.89,2 of 6,GFTLASYGIS,VIYSDGRRTFYGDSVK,GRAAGTFDQ,Ctrl
2.01,1 of 6,GFTLNSYGIS,VIYSDGRRTFYGDSVN,GSAAGTFDS,Ctrl
2.14,4 of 6,GFQLNSYGIS,VIYSDGRRTVYGDAVK,GRAAGTFDS,GP_HC
2.80,1 of 6,GFTLNSYGIS,VIYSDGVRTAYGDSVK,GRAAGFFDS,Ctrl
no signal,0 of 6,GFSLNEYGIS,VIYSDGRRTFYGDSVK,GRTAGKFDS,GP_Gen
no signal,0 of 6,GHSLDEYGIS,VIYADGMRTAYTDDVK,GKWGEDVVT,En_Gibbs
no signal,0 of 6,GFDLNHYGIS,VIYNDGRRTFYGDKVK,GRAAGWFNS,Rand
no signal,0 of 6,GFDLNEYGVS,VIYADGQRTYYTESVK,GKFGDQLMA,En_Gibbs
no signal,0 of 6,GFTLVSYGIS,VIYSDGRRTFYDDSVK,GKLAGNFDS,Rand
no signal,0 of 6,GFTLNDYGIS,VIYSDGRRTFYADSVK,GRMAGTFIS,GPLM_HC
no signal,0 of 6,GFTLNEYGIS,VAYSDGRRTFSTDSVK,GRFAGSFDS,Rand
no signal,0 of 6,GFQLEDYGIS,VIYADGRRTAYAADVK,GQNTVVSGG,En_Gibbs
no signal,0 of 6,GFTLNEYGIS,VIYSDGRRTFYWDSVK,GRFAATFDS,Rand
no signal,0 of 6,GFTLNDYGIS,VIYSDWRRTFYGISVK,GRNNLTFIS,Rand

Again, the first 5 entries without any signal:

CDR-H1,CDR-H2,CDR-H3,group,mean log10 Kd (nM),replicates with signal
GFSLNEYGIS,VIYSDGRRTFYGDSVK,GRTAGKFDS,GP_Gen,no signal,0 of 6
GHSLDEYGIS,VIYADGMRTAYTDDVK,GKWGEDVVT,En_Gibbs,no signal,0 of 6
GFDLNHYGIS,VIYNDGRRTFYGDKVK,GRAAGWFNS,Rand,no signal,0 of 6
GFDLNEYGVS,VIYADGQRTYYTESVK,GKFGDQLMA,En_Gibbs,no signal,0 of 6
GFTLVSYGIS,VIYSDGRRTFYDDSVK,GKLAGNFDS,Rand,no signal,0 of 6